What follows are molecules tested against recombinant BACE1 protein (Homo sapiens, UniProt P56817) (assay: BACE1 biochemical FRET based assay - Method 1). Conditions: BACE1, 120 minutes at room temperature, pH 5.0.
Source text: (§1) This assay is a Fluorescence Resonance Energy Transfer Assay (FRET) based assay. The substrate for this assay is an APP derived 13 amino acids peptide that contains the ‘Swedish’ Lys-Met/Asn-Leu mutation of the amyloid precursor protein (APP) beta-secretase cleavage site. This substrate also contains two fluorophores: (7-methoxycoumarin-4-yl) acetic acid (Mca) is a fluorescent donor with excitation wavelength at 320 nm and emission at 405 nm and 2,4-Dinitrophenyl (Dnp) is a proprietary quencher acceptor. […] Upon cleavage by BACE1, the fluorophore Mca is separated from the quenching group Dnp, restoring the full fluorescence yield of the donor. The increase in fluorescence is linearly related to the rate of proteolysis.
Briefly in a 384-well format recombinant BACE1 protein in a final concentration of 1 μg/ml is incubated for 120 minutes at room temperature with 10 μm substrate in incubation buffer (40 mM Citrate buffer pH 5.0, 0.04% PEG, 4% DMSO) in the absence or presence of compound. Next the amount of proteolysis is directly measured by fluorescence measurement at T=0 and T=120 (excitation at 320 nm and emission at 405 nm). Results are expressed in RFU (Relative Fluorescence Units), as difference between T120 and T0.
(§2) A best-fit curve is fitted by a minimum sum of squares method to the plot of % Controlmin versus compound concentration. From this an IC50 value (inhibitory concentration causing 50% inhibition of activity) can be obtained.

By UniProt entry, the sequences of proteins in these tests, tags left out. Residues count along the entry.
UniProt P56817, 46-501 limits assumed: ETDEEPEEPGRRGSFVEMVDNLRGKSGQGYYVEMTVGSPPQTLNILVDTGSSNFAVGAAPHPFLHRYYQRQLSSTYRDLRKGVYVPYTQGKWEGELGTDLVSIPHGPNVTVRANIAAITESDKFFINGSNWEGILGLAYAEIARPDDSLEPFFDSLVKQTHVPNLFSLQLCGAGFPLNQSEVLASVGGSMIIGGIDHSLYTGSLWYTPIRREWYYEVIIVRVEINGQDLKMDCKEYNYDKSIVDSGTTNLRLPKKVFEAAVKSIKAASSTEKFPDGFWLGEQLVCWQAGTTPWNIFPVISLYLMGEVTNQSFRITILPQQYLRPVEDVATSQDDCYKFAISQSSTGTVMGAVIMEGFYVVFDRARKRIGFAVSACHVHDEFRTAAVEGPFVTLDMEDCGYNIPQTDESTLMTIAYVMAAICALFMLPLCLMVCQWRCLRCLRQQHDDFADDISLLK
UniProt Q9Y5Z0, 63-518 limits assumed: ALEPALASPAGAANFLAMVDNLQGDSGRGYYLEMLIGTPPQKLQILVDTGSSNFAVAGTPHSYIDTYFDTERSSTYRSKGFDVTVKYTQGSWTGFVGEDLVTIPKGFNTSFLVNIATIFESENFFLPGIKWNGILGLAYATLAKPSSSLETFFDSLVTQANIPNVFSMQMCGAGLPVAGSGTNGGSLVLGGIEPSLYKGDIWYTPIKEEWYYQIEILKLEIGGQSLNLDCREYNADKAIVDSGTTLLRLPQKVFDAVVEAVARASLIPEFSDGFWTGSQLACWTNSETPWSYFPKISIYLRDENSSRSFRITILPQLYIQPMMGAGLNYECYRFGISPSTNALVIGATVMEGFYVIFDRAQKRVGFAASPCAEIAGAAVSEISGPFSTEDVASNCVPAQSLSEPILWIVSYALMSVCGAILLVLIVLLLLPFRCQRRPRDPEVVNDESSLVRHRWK

Structure (SMILES) | Biochemical FRET based assay - Method 1 pIC50
CO[C@H]1C[C@](C)(C#N)C(N)=N[C@]1(C)c1cc(NC(=O)c2cnc(OCF)cn2)ccc1F | 6.77
CO[C@@H]1C[C@](C)(S(C)(=O)=O)C(N)=N[C@]1(C)c1cc(NC(=O)c2cnc(OCF)cn2)ccc1F | 6.48
CC[C@@]1(S(C)(=O)=O)CC[C@@](CF)(c2cc(NC(=O)c3ccc(F)cn3)ccc2F)N=C1N | 7.3
COc1cnc(C(=O)Nc2ccc(F)c([C@]3(CF)CCC(C)(C#N)C(N)=N3)c2)cn1 (stereo partly drawn) | 7.29

These molecules were tested against recombinant BACE2 protein (Homo sapiens, UniProt Q9Y5Z0) (assay: BACE2 biochemical FRET based assay). Conditions: BACE2, 450 minutes at room temperature, pH 5.0.
Source text: as §1, with “assay” for “assay is an APP derived 13 amino acids peptide that”, “the beta-secretase,” for “BACE1,”
Briefly in a 384-well format recombinant BACE2 protein in a final concentration of 0.4 μg/ml is incubated for 450 minutes at room temperature with 10 μM substrate in incubation buffer (50 mM Citrate buffer pH 5.0, 0.05% PEG, no DMSO) in the absence or presence of compound. Next the amount of proteolysis is directly measured by fluorescence measurement at T=0 and T=450 (excitation at 320 nm and emission at 405 nm). Results are expressed in RFU (Relative Fluorescence Units), as difference between T450 and T0.
as §2

Structure (SMILES) | Biochemical FRET based assay pIC50
CO[C@H]1C[C@](C)(C#N)C(N)=N[C@]1(C)c1cc(NC(=O)c2cnc(OCF)cn2)ccc1F | 5.72
CO[C@@H]1C[C@](C)(S(C)(=O)=O)C(N)=N[C@]1(C)c1cc(NC(=O)c2cnc(OCF)cn2)ccc1F | 5.14
CC[C@@]1(S(C)(=O)=O)CC[C@@](CF)(c2cc(NC(=O)c3ccc(F)cn3)ccc2F)N=C1N | 7.53
COc1cnc(C(=O)Nc2ccc(F)c([C@]3(CF)CCC(C)(C#N)C(N)=N3)c2)cn1 (stereo partly drawn) | 6.27

Each molecule was assayed on Abeta 1-42 produced and secreted into the medium of human neuroblastoma SKNBE2 cells (assay: Cellular αLisa assay in SKNBE2 cells, Abeta 42). Conditions: SKNBE2 cells expressing hAPP695, incubated for 18 hours.
Description: In two αLisa assays the levels of Abeta 1-42 produced and secreted into the medium of human neuroblastoma SKNBE2 cells are quantified. The assay is based on the human neuroblastoma SKNBE2 expressing the wild type Amyloid Precursor Protein (hAPP695). The compounds are diluted and added to these cells, incubated for 18 hours and then measurements of Abeta 1-42 are taken. Abeta 1-42 are measured by sandwich αLisa. αLisa is a sandwich assay using biotinylated antibody AbN/25 attached to streptavidin coated beads and antibody cAb42/26 conjugated acceptor beads for the detection of Abeta 1-42 respectively. In the presence of Abeta 1-42, the beads come into close proximity. The excitation of the donor beads provokes the release of singlet oxygen molecules that trigger a cascade of energy transfer in the acceptor beads, resulting in light emission. Light emission is measured after 1 hour incubation (excitation at […] and emission at 615 nm).
as §2

Structure (SMILES) | Cellular αLisa assay in SKNBE2 cells Abeta 42 pIC50
CO[C@H]1C[C@](C)(C#N)C(N)=N[C@]1(C)c1cc(NC(=O)c2cnc(OCF)cn2)ccc1F | 7.09
CO[C@@H]1C[C@](C)(S(C)(=O)=O)C(N)=N[C@]1(C)c1cc(NC(=O)c2cnc(OCF)cn2)ccc1F | 6.6
CC[C@@]1(S(C)(=O)=O)CC[C@@](CF)(c2cc(NC(=O)c3ccc(F)cn3)ccc2F)N=C1N | 6.89
COc1cnc(C(=O)Nc2ccc(F)c([C@]3(CF)CCC(C)(C#N)C(N)=N3)c2)cn1 (stereo partly drawn) | 7.25

Source: patent publication US20180334447A1, “2,3,4,5-TETRAHYDROPYRIDIN-6-AMINE DERIVATIVES” (JANSSEN PHARMACEUTICA NV, priority 2015, published 2018)
